Yeast mating assay B: variants of the scFv Ab-14

The target is the same throughout: PDVDLGDISGINAS, from the HR2 region of SARS-CoV-2 spike.

Each scFv is VH, the linker GGGGSGGGGSGGGGS, VL, as in the parent Ab-14, and differs from it in the CDRs of the light chain only.
VH: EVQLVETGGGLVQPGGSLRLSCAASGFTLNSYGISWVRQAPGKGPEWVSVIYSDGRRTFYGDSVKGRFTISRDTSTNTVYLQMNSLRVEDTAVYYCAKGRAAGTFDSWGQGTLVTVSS
VL: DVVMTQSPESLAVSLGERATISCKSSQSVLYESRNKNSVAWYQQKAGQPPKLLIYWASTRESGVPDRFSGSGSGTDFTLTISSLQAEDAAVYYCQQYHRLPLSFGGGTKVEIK

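The parent was found by panning a naive human phage display library on the peptide. The variants were designed computationally from a first round of random CDR variants and then made and measured. Group labels follow the data file (Ctrl: baseline library sampled from a position-specific scoring matrix, with some repeated check sequences; Rand: our label for a block that the file lists under HC and that is probably the random mutants of the ten best first-round binders; En: ensemble of fine-tuned language models; GP: Gaussian process model; HC: hill climbing; Gen: genetic algorithm; Gibbs: Gibbs sampling; a sequence that several methods proposed may carry one label only). Affinity was read by AlphaSeq, a pooled yeast mating assay with surface-displayed partners. Mating (16 h, 30 °C) was followed by selection of diploids and sequencing of their barcodes. The ratio of observed to expected reads was calibrated, replicate by replicate, on BCL2-family standards whose Kd was known from biolayer interferometry. The assay was run in six technical replicates.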

The parent's light chain CDRs are KSSQSVLYESRNKNSVA, WASTRES, QQYHRLPLS; each variant's own CDRs replace them letter for letter. Values are log10 of the apparent Kd in nM; lower means stronger binding. Averages over replicates are reported, and they cover detected replicates only. "nd" marks a missing value. The strain was present, yet no cells mated with the target were sequenced in any replicate, which points to weak or no binding. The authors averaged sequences with at least three values out of six and counted those with two or fewer as poor binders. Three control strains display no target. For all light chain designs, 4% of the pairings with them gave a signal, with a median of 2.64 and one signal in twenty below 1.59, so weak values seen in few replicates may be background. For each scFv, signals with the empty controls are counted beside the result. The range of this assay differs from that of the first round, and the authors advise against merging the two.

CDR-L1,CDR-L2,CDR-L3,group,mean log10 Kd (nM),detected,control signals
MISDLMLYGSRNRNPIA,NASTREY,QQYHRLPLS,En_HC,0.92,6/6,1/18
QFDTNLHYMGANKNSVA,EMTEKTT,QQYHRLPIE,En_Gibbs,2.04,6/6,0/18
KLQQQDEYESRNKNSVA,HASCRWQ,QQYHRLPLS,GP_Gibbs,0.34,6/6,0/18
KMAQGWGYESRNANNVA,NASQRES,QQYHRLPLS,GP_Gibbs,-0.07,6/6,0/18
KMLQSNLYESRNKNSVA,NASTRMW,QQYHRLPLS,GP_Gibbs,0.08,6/6,0/18
KLDQSWMRESRNKNSVA,QASTREQ,QQYHRLPLS,GP_Gibbs,0.31,6/6,2/18
RIDAYPNMLGKNIESIA,EAALTLH,QQYARLPLS,En_Gibbs,1.43,6/6,1/18
KSSQSVLVESRNKNSVA,WASTRES,QQYARLPLS,Ctrl,nd,0/6,1/18
KLSQSELYESRQFNSVA,HASQREL,QQYHRLPLS,GP_Gibbs,0.07,6/6,0/18
MVNQHDEGFKGVKDAIA,NAETREG,QHYGRLPLS,En_Gibbs,1.82,6/6,1/18
VLPDPMLMFEMQYNSIA,EGVQRME,QQYERLPLT,En_Gibbs,1.16,6/6,0/18
KSSQSVLYYSRNKNSVA,NASTRES,QQYHRLPLS,Ctrl,0.76,6/6,1/18
KLSQSWGYESRNKNSVA,NASTRMS,QQYHRLPLS,GP_Gen,-0.14,6/6,1/18
NISHFMDTTAKHNNNVA,EMEMREV,QQYHHLPLS,En_Gen,1.56,6/6,1/18
KLQQSMEYESRNKNSVA,NASTRLS,QQYHRLPLS,GP_Gen,0.17,6/6,4/18
KSSMSVLYEMDNKNSVA,WASTRES,QQYHRHPLS,Ctrl,nd,0/6,0/18
KSSQSVLYESRNKNSVA,WASTRES,NQYHRLMLS,Ctrl,nd,0/6,0/18
KYEFSVLELSRNSNAVA,NASTREE,QQYHRLPLS,GP_Gibbs,-0.05,6/6,1/18
MLSEVLHMLGVAKNSIA,DLVLRAN,QQYHRLPLA,En_Gen,nd,0/6,0/18
KIGHGLTTESRNKNSVA,QTETRLS,QHYHRLPLS,En_HC,2.56,5/6,2/18
KISGYLNKESKAKNSVA,EMVNRES,QQYDRLPLS,En_HC,0.67,5/6,0/18
KSSQTVLYESRNKNSVA,AASTRES,QQYHRLPLS,Ctrl,0.50,6/6,0/18
KLSMMVDYEDRNKNSVA,SASTRES,QQYHRLPLS,GP_Gibbs,0.33,6/6,3/18
KSSLSVLDESDQKNSVA,GASTREM,QQYHRLPLS,Ctrl,1.16,6/6,0/18
KSSSSVLTESRNKNSVA,WASTRES,QQYHRLPLW,Ctrl,nd,0/6,0/18
KSSQSVLDESRNFNSVA,WASTRES,QQYHRLPLS,Ctrl,1.28,6/6,0/18
KASQSDLDESRNKNSVA,WSSTRES,QQYHRLPLS,Ctrl,0.89,5/6,1/18
HIQSESEHFGKDHQSMA,DAHCKAA,QQYFRLPLM,En_Gibbs,0.50,6/6,1/18
KLQQSVLYESRNKNSVA,SASTRES,QQYHRLPLS,GP_Gen,0.21,6/6,1/18
KLPQSMLYESRNKNAVA,NASQRES,QQYHRLPLS,GP_Gen,-0.44,6/6,0/18
KLSQSVLYESRAKNSVA,NASTRMS,QQYHRLPLS,GP_Gen,0.08,6/6,4/18
KQSQSILYESRNKTSVA,DASTRES,QQYHRLPLS,Rand,1.38,6/6,0/18
KLEQSVHYESRNKNSVA,NASTRES,QQYHRLPLS,GP_HC,-0.13,6/6,0/18
KSSQSVLYDSRFKNSVA,WASTRES,DQYHRLPLS,Ctrl,1.63,2/6,0/18
TLSQMSGLEAVKHNNVA,ENSTREK,QQYDRLPLA,En_Gen,3.81,3/6,2/18

The remaining entries, values ahead:

mean log10 Kd (nM),detected,control signals,CDR-L1,CDR-L2,CDR-L3,group
0.57,6/6,0/18,KSSQSVLYESRFKNSVA,EASTREQ,QQYGRLPLS,Ctrl
0.33,6/6,3/18,KSSQSVLYESWNSNSVA,HASTRES,QQYHRLPLS,Ctrl
0.07,6/6,2/18,KLYQSHLYESRMKNSVA,NASTRES,QQYHRLPLS,GP_Gen
nd,0/6,0/18,KSSQSVLYESRNKNSVA,KASTAES,QQPHRLMLD,Ctrl
2.67,5/6,4/18,ILSDSVLTEMRNKNSVA,DNSTRES,QQYDRLPLS,En_HC
-0.30,6/6,2/18,KQSQEKLYESRNKNNVA,GASTRES,QQYHRLPLS,GP_HC
-0.17,6/6,0/18,HLSFSVLYESRNKNSVA,NASTRES,QQYHRLPLS,GP_HC
nd,0/6,0/18,KSSLKVGYESRNFNSVA,WASARES,QQYHTLPLS,Ctrl
-0.06,6/6,0/18,TFSQSVLYESVHKNNVA,QTSTREE,QQYDHLPLS,En_HC
-0.39,6/6,3/18,KVSQSQLYESRNKNNVA,NASQRES,QQYHRLPLS,GP_Gen
nd,0/6,1/18,KISQSVLYESNNKVSVA,TASTRES,QQCHRLPLS,Ctrl
0.85,6/6,1/18,DVSQSVLYESRNNNAVA,WASTRES,QQYHRLPLS,Ctrl
1.36,6/6,0/18,IVTYAQNDGSLYTNNIA,EGENTLA,QQYFRLPLM,En_Gibbs
0.64,6/6,0/18,KFSYVKEMVNKDQESIA,DAHTVQE,QQYSRLPLA,En_Gibbs
0.83,6/6,0/18,HLYQSQLYESRWKNSVA,NASTRLH,QQYHRLPLS,GP_Gibbs
0.58,3/6,0/18,KIGGVTNGISRSKNSVA,EQSTRED,QQYDRLPLQ,En_HC
0.20,6/6,0/18,KLYSITGTEKVHGNNVA,EMETRER,QQYNRLPLA,En_Gen
0.05,6/6,0/18,KFSQSVLYESRTKNSVA,NASTRES,QNYHRLPLS,GP_HC
-0.43,6/6,0/18,KLSQSMLYEERNKNSVA,NASQRES,QQYHRLPLS,GP_Gen
0.17,6/6,1/18,KLSQSQLYESRNKNSVA,NASQRED,QQYHRLPLS,GP_Gen
1.48,6/6,0/18,TISQLWNMGTFAINSVA,QAEIRNA,QQYDRLPLA,En_Gen
-0.09,6/6,1/18,KSSISYLYESRNKNSVA,AASTREV,QQYHRLPLS,GP_HC
1.15,2/6,0/18,KLYQSMLYESRNKNSVA,NASLRES,QCYHRLPLS,GP_Gibbs
0.96,6/6,0/18,HSSQSVLYESRNKNSVA,QASTRES,QQYHRLPLS,Ctrl
0.79,6/6,1/18,KFSQSVLYEERNKNSVA,WASIRES,QQYHRLPLS,Ctrl
2.10,6/6,0/18,KISMLQRFQSNSKNNIA,EMSRREE,QQYHRLPLS,En_HC
1.10,6/6,0/18,RIQMTDLEGRTAWNNIA,DMEESYR,QQYVRLPLY,En_Gibbs
0.23,6/6,0/18,TLGQSTMMESRNKNNVA,QMSTREK,QQYHRLPLS,En_HC
0.53,6/6,0/18,NLNTEYYTGTSNWNNIA,HGSMVEA,QQYFQLPIQ,En_Gibbs
0.33,6/6,0/18,KLSQSVLYESRNKNSVA,NASTREW,QQYHRLPLS,GP_Gen
-0.09,6/6,1/18,KVSQSELYGSRNKWSVA,NASTRES,QQYHRLPLQ,GP_Gibbs
0.27,6/6,1/18,HLSQSQQYESRNKNSVA,NASTRLH,QQYHRLPLS,GP_Gibbs
0.34,6/6,1/18,RFPEHLLMLESEIRSIA,NATKTME,QQYFRLPLV,En_Gibbs
0.53,6/6,0/18,KLSQSFLYESRNKNSVA,EASTRES,QDYHRLPLS,GP_Gen
2.66,2/6,2/18,KSSQSTLYESRNKNSVA,WAYTRES,QQYHRLPLS,Ctrl

A selection of 10 entries from above:

CDR-L1,CDR-L2,CDR-L3,group,mean log10 Kd (nM),detected,control signals
DVSQSVLYESRNNNAVA,WASTRES,QQYHRLPLS,Ctrl,0.85,6/6,1/18
KSSQSTLYESRNKNSVA,WAYTRES,QQYHRLPLS,Ctrl,2.66,2/6,2/18
KLYQSMLYESRNKNSVA,NASLRES,QCYHRLPLS,GP_Gibbs,1.15,2/6,0/18
KSSQSVLYESRFKNSVA,EASTREQ,QQYGRLPLS,Ctrl,0.57,6/6,0/18
KSSSSVLTESRNKNSVA,WASTRES,QQYHRLPLW,Ctrl,nd,0/6,0/18
HLSFSVLYESRNKNSVA,NASTRES,QQYHRLPLS,GP_HC,-0.17,6/6,0/18
KLYQSHLYESRMKNSVA,NASTRES,QQYHRLPLS,GP_Gen,0.07,6/6,2/18
KSSQSVLYESWNSNSVA,HASTRES,QQYHRLPLS,Ctrl,0.33,6/6,3/18
QFDTNLHYMGANKNSVA,EMTEKTT,QQYHRLPIE,En_Gibbs,2.04,6/6,0/18
VLPDPMLMFEMQYNSIA,EGVQRME,QQYERLPLT,En_Gibbs,1.16,6/6,0/18

Reference: Li et al. 2023, doi:10.1038/s41467-023-39022-2. File: FLAb, binding data.